Experimental data from patent US20150065499A1, “3-AMINOTHIENO[3,2-c]QUINOLINE DERIVATIVES, METHODS OF PREPARATION AND USES” (TEMPLE UNIVERSITY - OF THE COMMONWEALTH SYSTEM OF HIGHER …, priority 2012, published 2015).

Amino acid sequences for entries named in this document (tags omitted). A change or cut given only in a name is not applied to a line headed by its entry.
UniProt P48736: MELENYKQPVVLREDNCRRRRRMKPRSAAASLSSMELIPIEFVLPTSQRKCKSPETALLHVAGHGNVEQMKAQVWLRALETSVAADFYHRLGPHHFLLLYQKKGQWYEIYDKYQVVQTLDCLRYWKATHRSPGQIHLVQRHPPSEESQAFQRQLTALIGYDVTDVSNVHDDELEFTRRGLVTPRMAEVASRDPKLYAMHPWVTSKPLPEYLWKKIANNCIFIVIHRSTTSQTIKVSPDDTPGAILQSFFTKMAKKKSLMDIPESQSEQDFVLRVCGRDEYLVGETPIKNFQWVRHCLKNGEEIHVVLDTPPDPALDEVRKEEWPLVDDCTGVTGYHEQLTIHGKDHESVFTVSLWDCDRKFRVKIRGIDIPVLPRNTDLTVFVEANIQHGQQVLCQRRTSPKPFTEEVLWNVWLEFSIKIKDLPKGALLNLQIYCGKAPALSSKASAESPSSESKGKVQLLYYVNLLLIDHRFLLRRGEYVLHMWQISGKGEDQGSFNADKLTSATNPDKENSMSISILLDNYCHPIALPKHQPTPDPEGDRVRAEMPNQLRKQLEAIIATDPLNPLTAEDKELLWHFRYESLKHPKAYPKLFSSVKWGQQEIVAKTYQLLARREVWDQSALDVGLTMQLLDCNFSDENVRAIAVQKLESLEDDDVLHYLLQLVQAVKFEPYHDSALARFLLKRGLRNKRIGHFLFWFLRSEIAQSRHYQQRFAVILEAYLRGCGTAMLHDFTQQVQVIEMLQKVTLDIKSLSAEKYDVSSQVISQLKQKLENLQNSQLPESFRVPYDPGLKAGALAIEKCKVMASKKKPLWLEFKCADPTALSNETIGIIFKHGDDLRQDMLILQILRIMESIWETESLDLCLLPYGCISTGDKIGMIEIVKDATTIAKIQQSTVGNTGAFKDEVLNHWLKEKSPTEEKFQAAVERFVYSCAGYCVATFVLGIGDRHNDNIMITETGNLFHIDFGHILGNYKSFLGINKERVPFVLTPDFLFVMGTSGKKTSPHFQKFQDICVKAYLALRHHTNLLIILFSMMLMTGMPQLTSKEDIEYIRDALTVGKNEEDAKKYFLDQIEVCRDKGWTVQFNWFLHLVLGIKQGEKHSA
UniProt P42338: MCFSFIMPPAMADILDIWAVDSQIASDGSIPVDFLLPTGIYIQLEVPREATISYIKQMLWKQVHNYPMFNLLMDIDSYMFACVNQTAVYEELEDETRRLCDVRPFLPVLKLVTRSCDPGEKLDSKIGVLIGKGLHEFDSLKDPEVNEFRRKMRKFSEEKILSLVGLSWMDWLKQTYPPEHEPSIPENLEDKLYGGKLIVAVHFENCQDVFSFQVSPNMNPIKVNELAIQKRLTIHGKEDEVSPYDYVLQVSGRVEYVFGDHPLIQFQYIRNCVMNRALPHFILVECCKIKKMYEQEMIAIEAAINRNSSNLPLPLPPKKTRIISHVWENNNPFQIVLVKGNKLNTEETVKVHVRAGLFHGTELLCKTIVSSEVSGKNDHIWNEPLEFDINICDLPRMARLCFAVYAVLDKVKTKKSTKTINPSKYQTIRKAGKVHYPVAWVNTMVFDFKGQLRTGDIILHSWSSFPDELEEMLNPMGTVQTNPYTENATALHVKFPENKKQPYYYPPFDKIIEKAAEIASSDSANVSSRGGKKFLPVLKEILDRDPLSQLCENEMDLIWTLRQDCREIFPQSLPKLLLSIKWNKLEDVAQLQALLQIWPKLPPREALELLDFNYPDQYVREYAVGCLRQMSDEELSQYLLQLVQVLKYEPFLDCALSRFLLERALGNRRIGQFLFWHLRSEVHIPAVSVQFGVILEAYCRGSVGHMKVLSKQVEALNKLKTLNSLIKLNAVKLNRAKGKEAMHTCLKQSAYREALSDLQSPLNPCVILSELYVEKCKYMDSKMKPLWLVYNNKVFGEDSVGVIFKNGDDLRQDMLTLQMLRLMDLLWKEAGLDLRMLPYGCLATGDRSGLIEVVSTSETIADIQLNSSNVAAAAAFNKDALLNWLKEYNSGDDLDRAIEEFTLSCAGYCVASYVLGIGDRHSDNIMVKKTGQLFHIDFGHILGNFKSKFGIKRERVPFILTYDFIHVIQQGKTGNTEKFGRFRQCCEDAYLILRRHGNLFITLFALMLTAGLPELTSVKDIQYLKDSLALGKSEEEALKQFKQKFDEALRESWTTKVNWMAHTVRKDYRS

Experiments:
Human PI3Kγ (p120γ) = molecular target: T1, Human PI3Kγ (p120γ) (Homo sapiens, UniProt P48736); assay: PI3K isoform HTRF enzyme assay, PI3Kγ; type: biochemical; settings: 10 μM PIP2, 10 μM ATP, read-out: IC50 against PI3Kγ
T1 construct: His (N); host or cells: Baculovirus infected insect cells (printed 'SP)', probably a misprint of Sf9)
Protocol: (§1) The compound of Example 18, methyl 3-(4-fluorobenzamido)-7,8-dimethoxythieno[3,2-c]quinoline-2-carboxylate, was tested for ability to inhibit the four PI3K isoforms PI3Kα, PI3Kβ, PI3Kδ and PI3Kγ in a homogeneous time-resolved fluorescence (HTRF) enzyme assay.
(§2) The assay relies on the action of the aforesaid kinases on the substrate phosphatidylinositol (4,5)-bisphosphate (PIP2), providing the product phosphatidylinositol (3,4,5)-trisphosphate (PIP3). The PIP3 product is detected by displacement of biotin-PIP3 from an energy transfer complex consisting of Europium labeled anti-GST monoclonal antibody, a GST-tagged pleckstrin homology (PH) domain, biotinylated PIP3 and Streptavidin-Allophycocyanin (APC). Excitation of Europium in the complex results in an energy transfer to the APC and a fluorescent emission at 665 nm. The PIP3 product formed by PI 3-kinase(h) activity displaces biotin-PIP3 from the complex resulting in a loss of energy transfer and thus a decrease in signal. […]
(§3) The enzymes (PI3Kα, PI3Kβ, PI3Kδ or PI3Kγ) were delivered into the following kinase reaction buffer containing 10 μM PIP2 substrate: HEPES 50 mM (pH7.0), NaN3 0.02%, BSA 0.01%, Orthovanadate 0.1 mM, 1% DMSO. […] Homogeneous time-resolved fluorescence (HTRF) was measured (Ex=320 nm, ratio of Em=615 nm and Em=665 nm). […]

Human PI3Kβ (p110β/p85α) = molecular target: T2, Human PI3Kβ (p110β/p85α) (Homo sapiens, UniProt P42338); assay: PI3K isoform HTRF enzyme assay, PI3Kβ; type: biochemical; settings: 10 μM PIP2, 10 μM ATP, read-out: IC50 against PI3Kβ
T2 construct: N-terminal 6His-tagged recombinant full-length human p110β; 6His (N); host or cells: Baculovirus infected Sf21 cells
Protocol: as §1, §2, §3

O=c1cc(N2CCOCC2)oc2c(-c3ccccc3)cccc12 [LY294002, 2-(4-morpholinyl)-8-phenyl-chromone, reference compound]
IC50 (Human PI3Kγ (p120γ)): 896 nM | IC50 (Human PI3Kβ (p110β/p85α)): 2060 nM
